Experimental data: paper PMC12280925, “Structure-based discovery of positive allosteric modulators of the A1 adenosine receptor” (Proceedings of the National Academy of Sciences of the …, 2025)

Amino acid sequences for entries named in this document (tags omitted). A change or cut given only in a name is not applied to a line headed by its entry.
UniProt P30542, whole entry: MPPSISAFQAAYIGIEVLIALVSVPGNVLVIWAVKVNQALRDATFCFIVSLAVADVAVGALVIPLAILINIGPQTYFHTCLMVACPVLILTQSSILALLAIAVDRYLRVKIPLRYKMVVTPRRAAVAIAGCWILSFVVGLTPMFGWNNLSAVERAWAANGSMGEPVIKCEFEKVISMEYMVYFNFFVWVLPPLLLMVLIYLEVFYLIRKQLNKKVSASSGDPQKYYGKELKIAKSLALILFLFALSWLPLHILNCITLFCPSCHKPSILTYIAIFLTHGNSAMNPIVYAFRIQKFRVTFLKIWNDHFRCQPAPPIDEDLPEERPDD

Target: A1R (A1R-FlpInCHO cells) (Homo sapiens, UniProt P30542)
Assay: Inhibition of forskolin-stimulated cAMP accumulation: NECA potency ± compound and compound alone
Assay type: cell-based
Details: 30 μM compound in the absence of NECA; for NECA: maximal response
Procedure: FlpInCHO cell lines and cortical neuron cells were seeded into transparent 96-well plates at 20,000 cells/well and incubated for 16 to 20 h in a humidified incubator at 37 °C in 5% CO2. […] Compounds were added at either a single concentration (10 or 30 μM) or a concentration range for full interaction studies (3 to 30 μM), and plates were incubated for 30 to 60 min at 37 °C in a humidified chamber. […] After 30 min incubation at 37 °C, the reaction was terminated by rapid removal of buffer and the addition of 50 μL/well cold ethanol. […] Agonist concentration–response curves were normalized to the response mediated by 3 µM forskolin […].
Response=Basal+Emax-Basal×A/EC50+A,

CCNC(=O)[C@H]1O[C@@H](n2cnc3c(N)ncnc32)[C@H](O)[C@@H]1O [NECA, 5′-N-ethylcarboxamidoadenosine, reference compound]
inhibition of 3 μM forskolin-stimulated cAMP accumulation: 103%
